Earlier results on 2 substances are cited in article PMC3720659, “Integrated Analysis of Drug-Induced Gene Expression Profiles Predicts Novel hERG Inhibitors” (PLoS ONE, 2013).

This series concerns hERG current. The settings on record: cited from earlier work.

For the substance haloperidol, the “Annotation (hERG Active / Inactive)” value was “Active”. For the substance nimodipine, the “Annotation (hERG Active / Inactive)” value is “Inactive”.
